The target of the test is T1, Tyrosine-protein phosphatase non-receptor type 1 (Homo sapiens, UniProt P18031).
T1 sequence (P18031 whole entry): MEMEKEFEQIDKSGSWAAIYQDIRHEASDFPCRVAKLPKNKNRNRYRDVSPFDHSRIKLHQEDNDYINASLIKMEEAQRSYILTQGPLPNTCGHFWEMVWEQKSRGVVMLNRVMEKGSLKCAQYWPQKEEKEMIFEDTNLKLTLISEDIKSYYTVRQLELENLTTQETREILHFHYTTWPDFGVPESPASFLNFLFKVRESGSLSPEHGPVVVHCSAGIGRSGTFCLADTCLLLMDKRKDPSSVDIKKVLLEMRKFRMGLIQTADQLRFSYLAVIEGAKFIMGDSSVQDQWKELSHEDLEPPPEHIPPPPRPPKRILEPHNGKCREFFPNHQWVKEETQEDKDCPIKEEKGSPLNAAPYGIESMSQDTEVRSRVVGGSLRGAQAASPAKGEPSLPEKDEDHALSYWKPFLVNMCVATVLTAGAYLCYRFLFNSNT
Put plainly: Inhibitory activity against Protein tyrosine phosphatase 1B (PTP1B) over-expressed in intact Sf9 cell assay.

`O=P(O)(O)c1cccc(-c2ccc(CC(Cc3ccc(C(F)(F)P(=O)(O)O)cc3)(c3ccccc3)n3nnc4ccccc43)cc2)c1` (stereo unspecified): the IC50 came to 240 nM.

For orientation: IC50 means the point on the concentration scale where inhibition reaches its midpoint. A lower IC50 goes with greater potency.
